{"sequences": {"note": "The chains behind the UniProt entries cited, without tags or fusion partners. Residues count along the entry.", "UniProt O15530, 51-556": "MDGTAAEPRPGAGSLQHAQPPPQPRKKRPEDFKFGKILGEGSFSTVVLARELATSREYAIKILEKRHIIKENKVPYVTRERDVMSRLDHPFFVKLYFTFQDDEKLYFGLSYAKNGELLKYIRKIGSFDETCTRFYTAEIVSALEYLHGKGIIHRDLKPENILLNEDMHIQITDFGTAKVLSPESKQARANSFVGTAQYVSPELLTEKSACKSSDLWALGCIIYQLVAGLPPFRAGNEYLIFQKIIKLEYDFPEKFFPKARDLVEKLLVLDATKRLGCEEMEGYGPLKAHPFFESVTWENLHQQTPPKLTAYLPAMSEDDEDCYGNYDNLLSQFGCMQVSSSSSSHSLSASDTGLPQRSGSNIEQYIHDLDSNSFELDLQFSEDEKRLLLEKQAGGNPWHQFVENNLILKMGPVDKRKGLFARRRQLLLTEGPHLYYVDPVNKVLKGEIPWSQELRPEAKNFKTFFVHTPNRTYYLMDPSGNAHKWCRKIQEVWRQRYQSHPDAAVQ"}, "source": "patent US9238651B2", "about": "“1-H-pyrrolo[2,3-b]pyridine derivatives” (Merck Patent GmbH, priority 2010, dated 2016)", "key": {"PDK1 [1]": {"biological_target": "T1, PDK1 (Homo sapiens (Human), UniProt O15530)", "experiment": "Test for the inhibition of PDK1 (enzymatic flashplate assay)", "format": "biochemical", "details": "His6-PDK1(Δ1-50), 4 μM ATP", "description": "4. Test for the Inhibition of PDK1\nThe experimental batches are carried out in a flashplate system with 384 wells/microtitration plate.\nThe test substances are employed in corresponding concentrations (if desired in a dilution series). The control is carried out without test substance. The reaction is stopped using standard methods and washed. The activity of the kinase is measured via the incorporated radioactivity in top count. In order to determine the non-specific kinase reaction (blank value), the experimental batches are carried out in the presence of 100 nM staurosporine.\nThe radioactivity (decompositions per minute) of the blank value (no use of test substance in the presence of staurosporine) is subtracted from all other radioactivity values. The controls (kinase activity without test substance) are set equal to 100 percent and all other radioactivity values (after subtracting the blank value) are expressed set in relation thereto (for example in % of the control)."}, "PDK1 [2]": {"biological_target": "T1, PDK1", "experiment": "Cellular testing of PDK1 kinase inhibitors in PC3 cells (Luminex, phospho-T308-PKB)", "format": "cell-based", "description": "Method for the Cellular Testing of PDK1 Kinase Inhibitors in PC3 Cells\nThe cellular assay for the determination of the PDK1 kinase activity is carried out as a Luminex assay in the 96-well format. PC3 cells are sown at 20,000 cells per well in 100 μl of medium (45% of […]/45% of Ham's F12/10% of FCS) and incubated on the following day for 30 min with a serial dilution of the test substance (7 concentrations) under serum-free conditions. The cells are subsequently lysed using 90 μl of lysis buffer (20 mM tris/HCl pH 8.0, 150 mM NaCl, 1% of NP40, 10% of glycerol, 1% of phosphatase inhibitor I, 1% of phosphatase inhibitor II, 0.1% of protease inhibitor cocktail III, 0.01% of benzonase) per well, and the lysates are separated off from insoluble cell constituents by means of centrifugation through a 96-well filter plate (0.65 μm). The lysates are incubated overnight at 4° C. with shaking with Luminex beads to which an anti-total PKB antibody is coupled. The detection is carried out on the following day by addition of a phospho-T308-PKB antibody and a species-specific peroxidase-labelled secondary antibody. […] The values of the batches treated with test substance are calculated therefrom as percentage of control, and IC50 values are determined by means of RS1."}}}
{"smiles": "Cn1cc(-c2cnc3[nH]cc(-c4cc(N(CCC(N)=O)c5ccccc5)nc(N)n4)c3c2)cn1", "note": "[A35, 3-({2-Amino-6-[5-(1-methyl-1H-pyrazol-4-yl)-1H-pyrrolo[2,3-b]-pyridin-3-yl]pyrimidin-4-yl}phenylamino)propionamide]", "values": [{"measurement": "IC50", "setting": "PDK1 [1]", "value": 0.017, "unit": "µM"}, {"measurement": "IC50", "setting": "PDK1 [2]", "value": 23, "unit": "µM"}]}
